From PubChem BioAssay (NCI)
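Growth conditions: 96-well plates. Treatment: test compound, 48 hours, 5 concentrations. Analysis: linear interpolation between bracketing concentrations; unreached endpoints set to highest concentration. At the GI50, growth is halved. TGI is the concentration that stops growth completely.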

Tests used:
Assay in all cases: growth of human tumour cells (NCI), 48 h
786-0 renal = test system: 786-0 renal
A498 renal = test system: A498 renal
A549 NSCLC = test system: A549 NSCLC
ACHN renal = test system: ACHN renal
BT-549 breast = test system: BT-549 breast
CAKI-1 renal = test system: CAKI-1 renal
COLO 205 colon = test system: COLO 205 colon
DU-145 prostate = test system: DU-145 prostate
EKVX NSCLC = test system: EKVX NSCLC
HCT-116 colon = test system: HCT-116 colon
HCT-15 colon = test system: HCT-15 colon
HOP-62 NSCLC = test system: HOP-62 NSCLC
HOP-92 NSCLC = test system: HOP-92 NSCLC
HS 578T breast = test system: HS 578T breast
HT29 colon = test system: HT29 colon
IGROV1 ovarian = test system: IGROV1 ovarian
K-562 leukemia = test system: K-562 leukemia
KM12 colon = test system: KM12 colon
LOX IMVI melanoma = test system: LOX IMVI melanoma
M14 melanoma = test system: M14 melanoma
MALME-3M melanoma = test system: MALME-3M melanoma
MCF7 breast = test system: MCF7 breast
MDA-MB-231 breast = test system: MDA-MB-231 breast
MDA-MB-435 = test system: MDA-MB-435
MDA-N = test system: MDA-N
MOLT-4 leukemia = test system: MOLT-4 leukemia
NCI-H226 lung = test system: NCI-H226 lung
NCI-H23 lung = test system: NCI-H23 lung
NCI-H322M lung = test system: NCI-H322M lung
NCI-H460 lung = test system: NCI-H460 lung
NCI-H522 lung = test system: NCI-H522 lung
NCI/ADR-RES ovarian = test system: NCI/ADR-RES ovarian
OVCAR-3 ovarian = test system: OVCAR-3 ovarian
OVCAR-4 ovarian = test system: OVCAR-4 ovarian
OVCAR-5 ovarian = test system: OVCAR-5 ovarian
OVCAR-8 ovarian = test system: OVCAR-8 ovarian
PC-3 prostate = test system: PC-3 prostate
RPMI-8226 leukemia = test system: RPMI-8226 leukemia
RXF 393 renal = test system: RXF 393 renal
SF-268 CNS = test system: SF-268 CNS
SF-295 CNS = test system: SF-295 CNS
SF-539 CNS = test system: SF-539 CNS
SK-MEL-2 melanoma = test system: SK-MEL-2 melanoma
SK-MEL-28 melanoma = test system: SK-MEL-28 melanoma
SK-MEL-5 melanoma = test system: SK-MEL-5 melanoma
SK-OV-3 ovarian = test system: SK-OV-3 ovarian
SN12C renal = test system: SN12C renal
SNB-19 CNS = test system: SNB-19 CNS
SNB-75 CNS = test system: SNB-75 CNS
SR leukemia = test system: SR leukemia
SW-620 colon = test system: SW-620 colon
T-47D breast = test system: T-47D breast
TK-10 renal = test system: TK-10 renal
U251 CNS = test system: U251 CNS
UACC-257 melanoma = test system: UACC-257 melanoma
UACC-62 melanoma = test system: UACC-62 melanoma
UO-31 renal = test system: UO-31 renal

With `O=C(CO)Nc1ccc([As](=O)(O)O)cc1` the GI50 (786-0 renal) was > 100 µM, the TGI (786-0 renal) was > 100 µM and the GI50 (A498 renal) was > 100 µM. The TGI (A498 renal) was > 100 µM, the GI50 (A549 NSCLC) was > 100 µM and the TGI (A549 NSCLC) was > 100 µM. For the same molecule, the GI50 (ACHN renal) was > 100 µM, the TGI (ACHN renal) was > 100 µM and the GI50 (BT-549 breast) was > 100 µM. For the same molecule, the TGI (BT-549 breast) was > 100 µM, the GI50 (CAKI-1 renal) was > 100 µM and the TGI (CAKI-1 renal) was > 100 µM. For the same molecule, the GI50 (COLO 205 colon) was > 100 µM, the TGI (COLO 205 colon) was > 100 µM and the GI50 (DU-145 prostate) was > 100 µM. For the same molecule, the TGI (DU-145 prostate) was > 100 µM, the GI50 (EKVX NSCLC) was > 100 µM and the TGI (EKVX NSCLC) was > 100 µM. For the same molecule, the GI50 (HCT-116 colon) was > 100 µM, the TGI (HCT-116 colon) was > 100 µM and the GI50 (HCT-15 colon) was > 100 µM. The TGI (HCT-15 colon) was > 100 µM, the GI50 (HOP-62 NSCLC) was > 100 µM and the TGI (HOP-62 NSCLC) was > 100 µM. For the same molecule, the GI50 (HOP-92 NSCLC) was > 100 µM, the TGI (HOP-92 NSCLC) was > 100 µM and the GI50 (HS 578T breast) was > 100 µM. For the same molecule, the TGI (HS 578T breast) was > 100 µM, the GI50 (HT29 colon) was > 100 µM and the TGI (HT29 colon) was > 100 µM. For the same molecule, the GI50 (IGROV1 ovarian) was > 100 µM, the TGI (IGROV1 ovarian) was > 100 µM and the GI50 (K-562 leukemia) was > 100 µM. For the same molecule, the TGI (K-562 leukemia) was > 100 µM, the GI50 (KM12 colon) was > 100 µM and the TGI (KM12 colon) was > 100 µM. The GI50 (LOX IMVI melanoma) was > 100 µM, the TGI (LOX IMVI melanoma) was > 100 µM and the GI50 (M14 melanoma) was > 100 µM. The TGI (M14 melanoma) was > 100 µM, the GI50 (MALME-3M melanoma) was > 100 µM and the TGI (MALME-3M melanoma) was > 100 µM. For the same molecule, the GI50 (MCF7 breast) was > 100 µM, the TGI (MCF7 breast) was > 100 µM and the GI50 (MDA-MB-231 breast) was > 100 µM. For the same molecule, the TGI (MDA-MB-231 breast) was > 100 µM, the GI50 (MDA-MB-435) was > 100 µM and the TGI (MDA-MB-435) was > 100 µM. For the same molecule, the GI50 (MDA-N) was > 100 µM, the TGI (MDA-N) was > 100 µM and the GI50 (MOLT-4 leukemia) was > 100 µM. For the same molecule, the TGI (MOLT-4 leukemia) was > 100 µM, the GI50 (NCI-H226 lung) was > 100 µM and the TGI (NCI-H226 lung) was > 100 µM. For the same molecule, the GI50 (NCI-H23 lung) was > 100 µM, the TGI (NCI-H23 lung) was > 100 µM and the GI50 (NCI-H322M lung) was > 100 µM. For the same molecule, the TGI (NCI-H322M lung) was > 100 µM, the GI50 (NCI-H460 lung) was > 100 µM and the TGI (NCI-H460 lung) was > 100 µM. For the same molecule, the GI50 (NCI-H522 lung) was > 100 µM, the TGI (NCI-H522 lung) was > 100 µM and the GI50 (NCI/ADR-RES ovarian) was > 100 µM. For the same molecule, the TGI (NCI/ADR-RES ovarian) was > 100 µM, the GI50 (OVCAR-3 ovarian) was > 100 µM and the TGI (OVCAR-3 ovarian) was > 100 µM. For the same molecule, the GI50 (OVCAR-4 ovarian) was > 100 µM, the TGI (OVCAR-4 ovarian) was > 100 µM and the GI50 (OVCAR-5 ovarian) was > 100 µM. For the same molecule, the TGI (OVCAR-5 ovarian) was > 100 µM, the GI50 (OVCAR-8 ovarian) was > 100 µM and the TGI (OVCAR-8 ovarian) was > 100 µM. The GI50 (PC-3 prostate) was > 100 µM, the TGI (PC-3 prostate) was > 100 µM and the GI50 (RPMI-8226 leukemia) was > 100 µM. The TGI (RPMI-8226 leukemia) was > 100 µM, the GI50 (RXF 393 renal) was > 100 µM and the TGI (RXF 393 renal) was > 100 µM. The GI50 (SF-268 CNS) was > 100 µM, the TGI (SF-268 CNS) was > 100 µM and the GI50 (SF-295 CNS) was > 100 µM. For the same molecule, the TGI (SF-295 CNS) was > 100 µM, the GI50 (SF-539 CNS) was > 100 µM and the TGI (SF-539 CNS) was > 100 µM. The GI50 (SK-MEL-2 melanoma) was > 100 µM, the TGI (SK-MEL-2 melanoma) was > 100 µM and the GI50 (SK-MEL-28 melanoma) was > 100 µM. For the same molecule, the TGI (SK-MEL-28 melanoma) was > 100 µM, the GI50 (SK-MEL-5 melanoma) was > 100 µM and the TGI (SK-MEL-5 melanoma) was > 100 µM. For the same molecule, the GI50 (SK-OV-3 ovarian) was > 100 µM, the TGI (SK-OV-3 ovarian) was > 100 µM and the GI50 (SN12C renal) was > 100 µM. The TGI (SN12C renal) was > 100 µM, the GI50 (SNB-19 CNS) was > 100 µM and the TGI (SNB-19 CNS) was > 100 µM. For the same molecule, the GI50 (SNB-75 CNS) was > 100 µM, the TGI (SNB-75 CNS) was > 100 µM and the GI50 (SR leukemia) was > 100 µM. For the same molecule, the TGI (SR leukemia) was > 100 µM, the GI50 (SW-620 colon) was > 100 µM and the TGI (SW-620 colon) was > 100 µM. For the same molecule, the GI50 (T-47D breast) was > 100 µM, the TGI (T-47D breast) was > 100 µM and the GI50 (TK-10 renal) was > 100 µM. The TGI (TK-10 renal) was > 100 µM, the GI50 (U251 CNS) was > 100 µM and the TGI (U251 CNS) was > 100 µM. For the same molecule, the GI50 (UACC-257 melanoma) was > 100 µM, the TGI (UACC-257 melanoma) was > 100 µM and the GI50 (UACC-62 melanoma) was > 100 µM. For the same molecule, the TGI (UACC-62 melanoma) was > 100 µM, the GI50 (UO-31 renal) was > 100 µM and the TGI (UO-31 renal) was > 100 µM.
